# Data from patent US4873249A, “Pharmaceutical composition” (EGIS Gyogyszergyar, priority 1986, dated 1989).
# What was measured:
# in vivo [1] = settings: po
# Description: The observation period after treatment lasted for 14 days.
# Statistical evaluation was carried out as described by Litchfield-Wilcoxon's method.
# [2] = Writhing test in rats (acetic acid); settings: rat, in vivo, po
# Description: Five minutes after treatment with acetic acid, total number of characteristic writhing reactions was counted for 10 minutes and expressed as percentage of the control group.
# gastric mucosa of rats = test: Measurement of ulcerogenic activity; assay type: in vivo
# in vivo [3] = settings: mouse, po, mice, LD50/writhing ID50, read-out: TI (therapeutic index)
# Description: Between the 5th and 10th minute after the administration of acetic acid total number of the typical writhing reactions was counted, and expressed as percentage of the control. The experiments were performed in groups of at least 12 mice; measurements were done 60 min. after oral application of the test compounds.
compound,measurement,setting,value
"COc1ccc(Cc2cnc(N)nc2N)cc1OC [Compound A, 2,4-diamino-5-(3,4-dimethoxybenzyl)-pyrimidine]",LD50 at 336 h,in vivo [1]; mouse,6030 mg/kg
same,LD50 at 336 h,in vivo [1]; rat,3680 mg/kg
same,selectivity ratio,[2],102
same,Ulcus-index,gastric mucosa of rats; 250 mg/kg orally 6 and 16 h before decapitation,0.5
same,Ulcus-index,gastric mucosa of rats; 500 mg/kg orally 6 and 16 h before decapitation,0.2
same,Ulcus-index,gastric mucosa of rats; 1000 mg/kg orally 6 and 16 h before decapitation,0
same,Effect on ulcus-index (in words),"gastric mucosa of rats; oral, over the doses of Table 4",induces only small alteration even in high doses
same,selectivity ratio,in vivo [3],42.7
